Results on four molecules are retold here after US7105575B2, “Methods for the treatment of neuro- disorders using aminothiol compounds” (Medimmune Oncology Inc., priority 1997, dated 2006).

Each structure is given as a SMILES string.

Data set [1] concerns V79-B310H Chinese hamster cells. Conditions: cited from earlier work.
Another data set relates to DNA of salmon sperm. Conditions: compounds present concomitantly with cisplatin, in vitro; cited from earlier work.
The test system of a further data set is cells. As to conditions: compounds incubated with cells one hour after cisplatin exposure; cited from earlier work.
Data set [2] has as its system severe neurotoxicities of right arm, leg pain. As to the kind of experiment: Example 2 case study: amifostine for chemotherapy-induced neurotoxicities (carboplatinum, vinblastine, methotrexate). Type of data set: in vivo, human. The source says: The patient who is a survivor of the concentration camps of World War II, was diagnosed with bladder cancer that had metastized to the lungs. They received 3 cycles carboplatinum, vinblastine and methotrexate. While in the concentration camp, the patient suffered damage to their lower legs which caused them constant pain.

The subject of another data set is neurotoxicities. As to the kind of experiment: Example 4 case study: amifostine in MDS patient with neurotoxicities from CHOP chemotherapy. Format: in vivo, human.
The subject of data set [3] is neurotoxicities / neuropathy.
A further data set deals with cisplatin nephrotoxicity. Conditions: amifostine given 30 minutes after cisplatin; cited from earlier work.
Another data set relates to cisplatin neuropathy. Conditions: cited from earlier work.
Data set [4] relates to paclitaxel neuropathies and arthralgias/myalgias. As to conditions: pretreatment with amifostine, escalating doses of paclitaxel; cited from earlier work.
Data set [5] deals with cisplatin-induced renal failure. As to the kind of experiment: Example 1 case study: amifostine given after cisplatin-induced renal failure. Conditions: for overall clinical status (in words) / renal function (in words): amifostine 400 mg iv for 3 days; for renal function (in words): started after renal failure had developed.
For data set [6] the following is noted: cited from earlier work.
Where [7] appears, read: 500 mg amifostine over 10 minutes.
Setting [8] is: paclitaxel 135 mg/m^2 iv day 1, cisplatin 100 mg/m^2 intraperitoneally day 2, before amifostine.

For the molecule `NCCCNCCS` [WR-1065, S-2-(3-aminopropylamino) ethanethiol], the “protection against cis-DDP cytotoxicity” value in [1] (administered before, during and immediately after cisplatin treatment) is on record as “protects against cytotoxicity”. In [1], the “protection during versus immediately following cisplatin exposure” value is “little if any difference in the magnitude of protection”. Further, the “timing of maximum protection” value in data set [1] (presence in cell growth medium relative to cisplatin exposure) is listed as “maximum protection was obtained when WR-1065 was present in the cell growth medium for 30 minutes prior to exposure”. In addition, the “platination of salmon sperm DNA, co-incubation” value (shortened to “platination of salmon sperm DNA”) in the data set on DNA of salmon sperm is “caused a decrease in the platination”. For the same molecule, the “protection from cytostatic effect of cisplatin” value with cells is “neither WR-1065 nor WR-2721 (amifostine) could protect cells”.
For `NCCCNCCSSCCNCCCN` [WR-33278], the “platination of salmon sperm DNA” value with DNA of salmon sperm is recorded as “caused a decrease in the platination”.
For the molecule `NCCCNCCSP(=O)(O)O` [amifostine, S-2-(3-aminopropylamino)ethyl dihydrogen phosphorothioate], in data set [2] (setting [7]), the “leg pain two days after infusion” value is “the pain in their legs was getting better” and the “walking ability two days after infusion” value is reported as “able to walk without their cane”. Further, the “pain reported two days after infusion” value in data set [2] (person, 500 mg amifostine in 50 cc saline over 10 minutes) is recorded as “no pain for the first time in months”. In data set [2] (subsequent Ethyol infusions), the “arm pain after subsequent infusions” value was “remained without arm pain” and the “leg pain after subsequent infusions” value was “The pain in their legs has improved”. Besides, the “analgesic need (Duragesic patches)” value in [2] (subsequent Ethyol infusions, before: 2 patches of 100 mcg/hr) is reported as “managing with only one Duragesic Patch”. Besides, in the data set with neurotoxicities (continues on Ethyol for MDS), the “general status on continued treatment” value was “doing well”. In addition, the “neurotoxicities, patient statement after five weeks” value with neurotoxicities (person, Ethyol 840 mg Monday, Wednesday, Friday each week, neurotoxicities for eight years after CHOP) is on record as “neurotoxicities were better since receiving amifostine”. In addition, the “neuropathy one month after termination” value in [3] (after four amifostine treatments) is “neuropathy remained stable”. Moreover, the “tolerability of first infusion” value in data set [3] (person, amifostine 970 mg in 50 cc saline over 10 minutes, premedicated with Zofran and Decadron) was “tolerated this treatment without problems”. In the data set with DNA of salmon sperm, the “platination of salmon sperm DNA” value is “caused a decrease in the platination”. The “protection from cytostatic effect of cisplatin” value with cells is “neither WR-1065 nor WR-2721 (amifostine) could protect cells”. In addition, in the data set on cisplatin nephrotoxicity, the protection from nephrotoxicity result is reported as “did not protect mice at all from nephrotoxicity”. Besides, the “incidence of cisplatin neuropathies” value with cisplatin neuropathy (pretreatment with amifostine, prospective evaluation (Mollman 1988)) was “significantly lower incidence of cisplatin neuropathies”. For the same molecule, the “occurrence and severity of cisplatin neuropathy” value with cisplatin neuropathy (pretreatment, randomized trial cisplatin and cyclophosphamide±amifostine, advanced ovarian cancer (Kemp 1996)) was “significantly reduce the occurrence and severity of cisplatin neuropathy”. Further, the tolerated paclitaxel dose result in data set [4] was “allowed both higher single doses and cumulative doses of paclitaxel to be administered without the occurrence of dose limiting neuropathies and arthralgias/myalgias”. Also, in data set [5] (FIG. 1, start about 1.0, maximum about 5.5 mg/dL after cisplatin), the “serum creatinine level following treatment with amifostine (FIG. 1)” value is given as “about 2.8 mg/dL”. In data set [5] (about 8 days after second discharge, when amifostine 400 mg iv was given again), the “creatinine at further amifostine dose after follow-up clinic visit” value was 2.5 mg/dL. The “serum creatinine by hospital day 12 / discharge day 13” value in [5] (after 3 days of amifostine 400 mg iv, peak 6.0 mg/dL before amifostine) is reported as 2.8 mg/dL. For the same molecule, the “serum creatinine approximately 6 months later” value in data set [5] (after final 2-week course of amifostine 400 mg, 5 doses) is 2.0 mg/dL. In data set [5], the “overall clinical status (in words)” value is reported as “improvement in their overall clinical status” and the “renal function (in words)” value is “partial recovery of their renal function”. In [5] (listed as Amifostine), the “renal function (in words)” value was “partially reversed the toxic renal effects of cisplatin” and the “overall clinical status (in words)” value is “overall clinical status improved”. In addition, in [5] (amifostine 400 mg per day iv on post-cisplatin days 7, 8, 9), the tolerability entry was “tolerated therapy well, with only mild nausea”. For the same molecule, the “serum creatinine on day 3 of amifostine therapy” value in data set [5] (patient, amifostine 400 mg per day iv on post-cisplatin days 7, 8, 9, peak 6.0 mg/dL before amifostine) came to 4.6 mg/dL. In [5] (readmission, 5 days, amifostine 400 mg iv on hospital day 2), the “renal function during readmission (in words)” value is recorded as “renal function stabilized”. The tolerability entry in data set [5] (readmission, amifostine 400 mg iv once on hospital day 2, ondansetron 24 mg as needed) was “tolerated the treatment well”.
Take `N.N.[Cl][Pt][Cl]` [cisplatin, cis-diamminedichloroplatinum]: in data set [6] (nephrotoxicity produced by drugs such as cisplatin (Kemp 1996)), the “potential permanent loss of normal renal function” value is given as not below 50%. For the same molecule, the patients with myelosuppression in data set [6] (patients treated with cisplatin) was 25–30%. For the same molecule, the “maximum serum creatinine level after administration of cisplatin (FIG. 1)” value in data set [5] (FIG. 1, starting level about 1.0 mg/dL) is given as “about 5.5 mg/dL”. Further, in [5] (setting [8]), the “BUN by hospital day 5 after chemotherapy” value came to 39 mg/dL and the “serum creatinine by hospital day 5 after chemotherapy” value was found to be 4.9 mg/dL.
